Experimental data taken from PubChem BioAssay AID504720 (Sanford-Burnham Center for Chemical Genomics, 2011).
Only a part is listed here, and it is no random draw. Calls of active or inactive are those of the source. No stated cut-off is given here; in the data, active means activation above about 50%; inactive means the rest.

Sequences of proteins named here, by UniProt entry; tags and fusion partners are left off.
UniProt P0AE70, whole entry, looked up: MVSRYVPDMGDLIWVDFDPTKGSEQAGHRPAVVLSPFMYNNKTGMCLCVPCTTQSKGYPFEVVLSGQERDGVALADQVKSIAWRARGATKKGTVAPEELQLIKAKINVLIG

target: Endoribonuclease toxin MazF (Escherichia coli (strain K12)) (UniProt P0AE70); assay: activators of E. coli MazEF toxin-antitoxin RNase, primary screen, biochemical, fluorescence, uHTS (AID 504720); conditions: FAM/BHQ RNA-DNA oligo cleavage fluorescence, 5 h, at 20 µM, stronger effect = higher value

Structure (SMILES)	activation
CCC(=O)N(c1ccccc1)C1(COC)CCN(CCn2nnn(CC)c2=O)CC1	inactive: 0.2%
CCC(=O)N(c1ccccc1)C1(COC)CCN(CCc2cccs2)CC1	inactive: 3.4%
